Read-outs that look alike come from different tables or passages of the source.
Legend:
[1] = system: MDA-MB-468-luc cells co-cultured with N87 cells; experiment: Bystander killing test, N87 and 468-luc cells co-cultured; type: cell-based; conditions: 144 h
Experimental: (§1) NCI-N87 cells (Shanghai Cell Bank of Chinese Academy of Sciences, SCSP-534) were cultured in RPMI1640 medium (Gibco, 22400-089) and 10% fetal bovine serum (BOVOGEN). MDA-MB-468-luc cells (Shanghai Cell Bank of Chinese Academy of Sciences, TCHu136) with stably transfected firefly luciferase gene (self-constructed) were cultured in DMEM medium (Gibco, 11995-065) and 10% fetal bovine serum (BOVOGEN). The cells were digested with trypsin, and three black transparent-bottom cell culture plates (Corning, 3063) were used: plate 1 was added with 1000 N87 cells/well, plate 2 was added with 1000 468-luc cells/well, plate 3 was added with 2000 N87 and 1000 468-luc mixed cells/well. and the cells were incubated overnight at 37° C. in the incubator with 5% CO2. ADC samples were diluted with medium to final concentrations of 10 nM and 1 nM, 100 μL of ADC samples was added to each well, blank media were set as a control group, and the cells were further cultured for 144 hours. 100 μL of CELL Counting-Lite 2.0 Test Reagent (Vazyme, DD1101-03) was added to each well in plate 1 and was kept in the dark for 5 minutes for coloration. […] The fluorescence value was measured by a multifunctional microplate reader (Tecan Spark) with a reading time of 200 ms. Bystander killing activity was calculated using the formula: (Control group reading−ADC group reading)/(Control group reading)×100%.

[2] = system: MDA-MB-468-luc cells (low expression of HER2); experiment: Bystander killing test, 468-luc cells alone; type: cell-based; conditions: ADC 1 nM and 10 nM; 144 h
Experimental: as §1

[3] = system: N87 gastric cancer cells; experiment: Inhibitory activity of ADC on N87 gastric cancer cells (CellTiter-Glo, 144 h); type: cell-based; conditions: DAR values adjusted to DAR8
Experimental: (§2) Day 0: Cells in good growth condition were digested and filtered, then counted. 2000 cells/100 μL medium (N87 cells) were added to each well of a 96-well plate. 1000 cells/100 μL medium were added to each well of a 96-well plate (468 cells, N87 or HCC1954). 200 μL sterile water or PBS was added to the outer wells and incubated for 24 hours.
(§3) Day 1: Samples in the medium were gradient diluted (9 gradients+1 negative control). For N87, Payload or ADC was plated: Plate 1 (T-LY21, T-LY29, T-LY33), Plate 2 (T-LY33A, T-LY22, T-LY22C), Plate 3 (T-LY34, T-LY34B, T-LY35), Plate 4 (T-LY21C, T-LY28B, T-LY28C), Plate 5 (T-LY43C, T-LY43D, T-LY43E). Each sample had two parallel controls. The initial concentration was 100 nM, followed by 8 subsequent wells with 4-fold serial dilutions. 100 μL of the corresponding sample was added to each well of the Day 0 plate, with the 11th column as the control group with culture medium. Each sample had two parallel controls with an initial concentration of 1000 nM, followed by 8 subsequent wells with 4-fold serial dilutions. […]
(§4) Day 7: After 144 hours of cell treatment, the reagent CellTiter-Glo® was dissolved 30 minutes in advance. 100 μL of the reagent was added to each well, protected from light for 2-5 minutes, and the results were read twice to obtain the average.

[4] = system: human breast cancer JIMT-1 xenograft; experiment: Efficacy of ADCs in human breast cancer JIMT-1 xenograft model (Test Example 4); type: in vivo, CB17 SCID mice; conditions: 3 mg/kg i.v. twice
[5] = system: human gastric cancer NCI-N87 xenograft; experiment: Efficacy of ADCs in human gastric cancer NCI-N87 xenograft model (Test Example 3); type: in vivo, CB17 SCID mice; conditions: 1 mg/kg i.v. once
[6] = type: in vivo, SD rats; conditions: single dose 200 mg/kg tail vein, day 1 to day 10
Experimental: 1. Test method: SD rats were purchased from Beijing Vital River Laboratory Animal Technology Co., Ltd. and kept in SPF animal facility. Rats weighing 210 g-250 g were randomly divided into 3 groups, with 5 rats in each group, and the rats were administered with ADCs or vehicle control at a dose of 200 mg/kg via tail vein injection, with the injection day considered as day 1. Rats' body weight and food intake were measured daily, and their activity, fur condition, and any signs of diarrhea or soft stools were observed. Blood samples were collected on days 5 and 21 post-administration to test blood biochemistry and hematology parameters. The study ended on day 22 post-administration, and the rats were euthanized. Major organs (heart, liver, spleen, lungs, kidneys, etc.) were dissected and observed for gross pathological changes.

[7] = system: MDA-MB-468 breast cancer cells; experiment: Inhibitory activity of ADC on MDA-MB-468 breast cancer cells; type: cell-based; conditions: DAR values adjusted to DAR8, 144 h
Experimental: as §2, §3, §4

[8] = system: human gastric cancer NCI-N87 xenograft; experiment: Efficacy of ADCs in human gastric cancer NCI-N87 xenograft model (Test Example 5); type: in vivo, CB17 SCID mice; conditions: 1 mg/kg i.v. once
Experimental: The human gastric cancer NCI-N87 cell line (ATCC, CTL-5822) was cultured in RPMI-1640 medium (Gibco, catalog number: 22400-089, containing 10% FBS (Excell Bio, catalog number: FCS500)) in a 37° C. incubator with 500 CO2. Cells were digested with 0.25% trypsin-EDTA, washed with PBS twice, counted by a cell counter, and diluted with PBS to a cell concentration of 1×10^8 cells/mL before ten consecutive generations of cells were cultured.
CB17 SCID mice (female, 4-6 weeks of age, Beijing Vital River Laboratory Animal Technology Co., Ltd.) were used. CB17 SCID mice were acclimated to the laboratory environment for 2-5 days, NCI-N87 cells were inoculated subcutaneously into the right flank of each mouse at a dose of 5×10^6 cells/mouse in a volume of 0.1 mL (containing 50% Matrigel). When the tumor grew to approximately 100 mm^3, drug administration was performed according to the scheme shown in Table 8, and DAR values were all adjusted to 8.
Tumor volumes and body weight were measured twice a week, and the tumor proliferation rate and relative tumor inhibition rate were calculated. The calculation formulas are as follows:
[formula] • (TRTV: average RTV of the treatment group; CRTV: average RTV of the control group; RTV=Vt/VO, where VO is the tumor volume of the animal at the time of grouping, and Vt is the tumor volume of the animal after treatment).
[formula] • (T and C are relative tumor volumes (RTV) of the treatment and control groups at a specific time point, respectively);
The formula for calculating the tumor volume (V): V=½×LL×LS^2 • where LL and LS represent the long and short diameters of the tumor, respectively. At the end of the experiment, the mice were sacrificed and the tumors were cut off and weighed.

## Trastuzumab Deruxtecan [T-BY1]
[1]; ADC 1 nM
  proportion of 468-luc cells killed in co-culture with N87: 13.9%
[1]; ADC 10 nM
  proportion of 468-luc cells killed in co-culture with N87: 34.0%
[2]
  killing of 468-luc cells cultured alone: basically could not kill 468-luc cells
[3]
  IC50: 0.126 nM
[4]
  TC(%) 25 days after dosing: 34.45%
  TGI(%) 25 days after dosing: 65.55%
  Tumor volume 4 days after dosing: 159.07 mm^3
  Tumor volume 8 days after dosing: 168.66 mm^3
  Tumor volume 15 days after dosing: 135.92 mm^3
  Tumor volume 19 days after dosing: 142.86 mm^3
  Tumor volume 22 days after dosing: 149.41 mm^3
  Tumor volume 25 days after dosing: 203.64 mm^3
[4]; tumor 150-200 mm^3 at start
  Tumor Volume 0 days after dosing: 164.38 mm^3
[5]
  T/C(%) 27 days after dosing: 18.65%
  TGI % 27 days after dosing: 81.35%
  Tumor Volume 7 days after dosing: 83.77 mm^3
  Tumor Volume 11 days after dosing: 123.0 mm^3
  Tumor Volume 21 days after dosing: 149.44 mm^3
  Tumor Volume 24 days after dosing: 148.70 mm^3
  Tumor Volume 27 days after dosing: 149.73 mm^3
[5]; tumor approx. 200 mm^3 at start
  Tumor Volume 0 days after dosing: 204.14 mm^3
[6]; first study
  body weight of rats compared with vehicle control: significantly lower than that of the vehicle control
[6]; second study
  body weight of rats compared with vehicle control: significantly lower than that of the vehicle control
[7]
  IC50: 49.4 nM
[8]
  TC(%) 28 days after dosing: 26.41%
  TGI(%) 28 days after dosing: 73.59%
  Tumor Volume 7 days after dosing: 147.97 mm^3
  Tumor Volume 10 days after dosing: 187.85 mm^3
  Tumor Volume 13 days after dosing: 220.18 mm^3
  Tumor Volume 16 days after dosing: 224.36 mm^3
  Tumor Volume 24 days after dosing: 199.35 mm^3
  Tumor Volume 28 days after dosing: 210.98 mm^3
  Tumor volume 19 days after dosing: 230.25 mm^3
[8]; tumor approx. 100 mm^3 at start
  Tumor Volume 0 days after dosing: 98.08 mm^3
